# Apparent affinities of Ab-95 variants for a coronavirus HR2 peptide

Target peptide (SARS-CoV-2 spike, HR2 region): PDVDLGDISGINAS

Parent scFv Ab-95: VH joined to VL by the linker GGGGSGGGGSGGGGS. Changes lie in the light chain CDRs alone.
VH: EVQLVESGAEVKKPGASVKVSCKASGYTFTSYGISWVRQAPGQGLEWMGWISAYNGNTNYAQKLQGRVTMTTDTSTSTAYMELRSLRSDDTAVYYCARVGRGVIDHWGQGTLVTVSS
VL: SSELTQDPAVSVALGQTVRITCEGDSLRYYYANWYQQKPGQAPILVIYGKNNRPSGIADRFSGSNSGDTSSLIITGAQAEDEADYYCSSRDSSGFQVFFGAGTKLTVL

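Phage display of a naive human antibody library on the peptide gave the parent. In library AAYL52, one, two or three CDR residues were substituted; doubles and triples were drawn at random. The assay is AlphaSeq: two haploid yeast populations carry antibody and antigen on their surface. Pairs that bind mate more often; barcode pairs of the diploids are counted by sequencing. Scores were corrected for input abundance and mapped to Kd with protein pairs of known affinity run in the same pool. Mating was done three times.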

Changes read parent residue, position, new residue, counted from the first residue of the VL shown.
Every variant below is changed at R28 of the VL (sequential numbering).
Values are log10 of the apparent Kd in nM; lower means stronger binding.
A mean of the replicates is given; it leaves out those without a signal.
Where no diploid with the target was found in any replicate, the entry reads "no signal": below detection, most likely a poor binder, though not proof of it.
For reference, the parent read 2.31 as the reference entry and 2.25 as a member of this library.
Background: pairings of library AAYL52 with three empty control strains gave a value in 28% of cases (median 3.91, 5th percentile 2.90). Values in that range, when seen in few replicates, are hard to tell from nonspecific mating.

| changes | mean log10 Kd (nM) | replicates with signal |
|---|---|---|
| R28F Y29F F98Y | no signal | 0 of 3 |
| R28L A32E S55Q | no signal | 0 of 3 |
| G24T R28I R90S | 3.78 | 2 of 3 |
| R28Y G94N Q96I | 2.90 | 3 of 3 |
| G24E R28G D91M | 4.26 | 1 of 3 |
| R28S N33T S55Y | 4.16 | 2 of 3 |
| R28L Y31N G94F | 1.45 | 3 of 3 |
| R28K Y29W G49C | 4.68 | 2 of 3 |
| R28V S88K | no signal | 0 of 3 |
| D25K R28E V97E | 3.72 | 1 of 3 |
| R28S N33T D91Q | 4.94 | 2 of 3 |
| D25V R28N G49M | 3.33 | 3 of 3 |
| R28H N51E S92Y | 3.20 | 3 of 3 |
| E23N R28W R53A | 3.77 | 3 of 3 |
| E23T R28F Q96H | 2.60 | 3 of 3 |
| R28P G49K K50N | 2.86 | 3 of 3 |
| E23I R28N Y29I | 4.07 | 2 of 3 |
| R28Q K50I | 2.63 | 3 of 3 |
| R28G Y30V Y31G | 1.15 | 3 of 3 |
| R28T R90K Q96K | 2.77 | 3 of 3 |
| R28Y R53T S92M | 3.80 | 3 of 3 |
| R28E A32N K50N | 2.89 | 3 of 3 |
| R28A Y29R Y31S | 1.93 | 3 of 3 |
| G24F L27H R28N | 2.94 | 3 of 3 |
| R28P Y31R S92G | 2.98 | 3 of 3 |
| R28K S93C | 4.58 | 1 of 3 |
| D25S R28I R53H | 3.32 | 2 of 3 |
| G24P R28K A32E | 3.02 | 3 of 3 |
| R28A N52F R90T | 3.36 | 2 of 3 |
| R28M N52C | 3.49 | 1 of 3 |
| E23K D25A R28L | 1.94 | 3 of 3 |
| S26I R28N F98L | 3.10 | 3 of 3 |
| R28V Y30L Y31E | 2.61 | 3 of 3 |
| R28M G94K Q96V | 2.90 | 3 of 3 |
| R28W P54W | 3.61 | 1 of 3 |
| G24P R28G Y31N | 3.55 | 2 of 3 |
| S26V R28G Y30A | 1.17 | 3 of 3 |
| R28Q Y31S | 1.15 | 3 of 3 |
| R28Y Y30H G94W | 3.51 | 3 of 3 |
| R28I Y31D N51R | 3.02 | 3 of 3 |
| R28E D91R | 2.83 | 3 of 3 |
| R28H K50C | 2.60 | 3 of 3 |
| R28S S88Y F98L | no signal | 0 of 3 |
| E23C R28E N33E | no signal | 0 of 3 |
| R28Q N33T N51A | no signal | 0 of 3 |
| R28D Y29N R90P | 3.96 | 2 of 3 |
| R28L N33H G49F | no signal | 0 of 3 |
| R28W S55D S93V | 4.52 | 2 of 3 |
| D25H R28I F95Y | 2.62 | 3 of 3 |
| S26K R28C N33M | 2.69 | 3 of 3 |
| G24Y S26H R28A | 2.86 | 3 of 3 |
| R28V S93N V97W | no signal | 0 of 3 |
| R28L N52Q D91W | 2.96 | 3 of 3 |

The first 7 variants above that were never detected:

| changes | mean log10 Kd (nM) | replicates with signal |
|---|---|---|
| R28F Y29F F98Y | no signal | 0 of 3 |
| R28L A32E S55Q | no signal | 0 of 3 |
| R28V S88K | no signal | 0 of 3 |
| R28S S88Y F98L | no signal | 0 of 3 |
| E23C R28E N33E | no signal | 0 of 3 |
| R28Q N33T N51A | no signal | 0 of 3 |
| R28L N33H G49F | no signal | 0 of 3 |

Reference: Engelhart et al. 2022, doi:10.1038/s41597-022-01779-4. File: FLAb, binding data.